Measurements published in ChEMBL document CHEMBL3352474, “Design, synthesis and biological evaluation of FLT3 covalent inhibitors with a resorcylic acid core” (Bioorg Med Chem, 2014).

Sequences of proteins named here, by UniProt entry; tags and fusion partners are left off.
UniProt P36888, whole entry: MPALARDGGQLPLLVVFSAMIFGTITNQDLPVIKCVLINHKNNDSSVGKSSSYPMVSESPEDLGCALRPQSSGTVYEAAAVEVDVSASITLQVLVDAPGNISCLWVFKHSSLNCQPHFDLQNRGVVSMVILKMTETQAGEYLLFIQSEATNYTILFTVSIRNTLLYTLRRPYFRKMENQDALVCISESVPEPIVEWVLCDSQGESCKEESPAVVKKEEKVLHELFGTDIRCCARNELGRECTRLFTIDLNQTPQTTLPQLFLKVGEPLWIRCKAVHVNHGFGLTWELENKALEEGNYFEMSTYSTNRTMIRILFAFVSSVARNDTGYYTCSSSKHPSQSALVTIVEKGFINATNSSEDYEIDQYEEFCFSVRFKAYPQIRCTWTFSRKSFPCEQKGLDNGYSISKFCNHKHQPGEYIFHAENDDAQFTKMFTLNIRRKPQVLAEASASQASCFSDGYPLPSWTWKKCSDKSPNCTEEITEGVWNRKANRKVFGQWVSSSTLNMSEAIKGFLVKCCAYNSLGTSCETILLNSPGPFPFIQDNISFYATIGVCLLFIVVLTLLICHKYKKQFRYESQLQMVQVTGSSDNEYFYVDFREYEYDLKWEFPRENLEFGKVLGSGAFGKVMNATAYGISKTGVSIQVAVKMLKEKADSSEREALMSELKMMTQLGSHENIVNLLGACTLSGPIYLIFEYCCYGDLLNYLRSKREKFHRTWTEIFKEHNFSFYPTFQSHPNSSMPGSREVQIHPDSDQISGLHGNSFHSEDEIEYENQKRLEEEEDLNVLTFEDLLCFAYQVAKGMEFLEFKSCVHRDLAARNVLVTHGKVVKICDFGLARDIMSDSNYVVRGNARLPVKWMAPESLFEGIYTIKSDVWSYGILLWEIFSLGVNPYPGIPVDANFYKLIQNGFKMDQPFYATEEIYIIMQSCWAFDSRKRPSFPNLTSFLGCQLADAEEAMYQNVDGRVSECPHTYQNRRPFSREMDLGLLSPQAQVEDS

Molecular target: Receptor-type tyrosine-protein kinase FLT3 (Homo sapiens, UniProt P36888)

SMILES	T1/2
C=CS(=O)(=O)NC/C=C/c1cc(OC)cc(O)c1C(=O)OC(C)C	5.9 min
C=CC(=O)NC/C=C/c1cc(OCCCN2CCOCC2)cc(O)c1C(=O)OC(C)C	6.8 min
